Assay results as given in patent publication US20210040232A1 (Regeneron, published 2021).

Biological target: hCTLA-4 extracellular domain (aa 1-161) fused to the trans-membrane and cytoplasmic domain of hCD300a (aa … (human, UniProt Q9UGN4 181-299))
Test: cell-based or functional assay

B1: H1H19319P2 (antibody, human IgG1, V domains shown)
VH: QVQLVESGGGEVQPGRSLRLSCAASGFTFSSYGMHWVRQAPGKGLEWVAVIWYDGRNKHYVDSVKGRFTISRDNSKNTVYLQMNSLRAEDSAVYYCVRGGQLGAFDYWGQGTLVTVSS
VL: not shown
With B1 the “EC50, T-cell/APC IL-2 release assay, APC HEK293/hCD20/hCD80” value was 15.6 nM.
